The results in this text go back to patent publication US9238131B2, “Ocular iontophoresis device” (priority 2005, dated 2016).

For this data set the following is noted: rabbit, 40 mg/ml in water with no buffer, 2 mA-4 min. From the text: The assignee made some comparative tests on rabbits done with a first iontophoresis device having cylindrical outer and inner walls (as known in the prior art) and a second iontophoresis device as shown in FIG. 7 (i.e. the inner wall 26 and outer wall 24 being tapered with the same inclination angle).
The two devices were designed for having the same: • application surface 2; • distance between the active electrode 10 and the application surface 2.
The area of the active electrode 30 of the second device was about three times more important than those of the first device.
For each comparative test, iontophoresis conditions were the same (2 mA-4 min).
After iontophoresis, rabbit ocular tissues were sampled. Tissues sampled included choroids and retina.
Concentrations of active substances 30 in these ocular tissues were then measured.

`C[C@@H]1C[C@H]2[C@@H]3CCC4=CC(=O)C=C[C@]4(C)[C@@]3(F)[C@@H](O)C[C@]2(C)[C@@]1(O)C(=O)COP(=O)([O-])[O-].[Na+].[Na+]` [Dexamethasone Disodium Phosphate]: the “Increase of tissue concentration, second device versus first device, retina” value was 3.4.
